Laboratory results reported in PubChem BioAssay AID720508 (The Scripps Research Institute Molecular Screening Center, 2013).
Only a part is listed here, and it is no random draw. Calls of active or inactive are those of the source.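 How the source made its calls: active means inhibition above the mean of compounds falling within the control limits plus 3 SD of them (cut at about 14% in these data); inactive means the rest.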

The chains behind the UniProt entries cited, without tags or fusion partners. Where a name states a change or a piece, a line headed by the entry shows the natural chain unless it says otherwise.
UniProt P02675: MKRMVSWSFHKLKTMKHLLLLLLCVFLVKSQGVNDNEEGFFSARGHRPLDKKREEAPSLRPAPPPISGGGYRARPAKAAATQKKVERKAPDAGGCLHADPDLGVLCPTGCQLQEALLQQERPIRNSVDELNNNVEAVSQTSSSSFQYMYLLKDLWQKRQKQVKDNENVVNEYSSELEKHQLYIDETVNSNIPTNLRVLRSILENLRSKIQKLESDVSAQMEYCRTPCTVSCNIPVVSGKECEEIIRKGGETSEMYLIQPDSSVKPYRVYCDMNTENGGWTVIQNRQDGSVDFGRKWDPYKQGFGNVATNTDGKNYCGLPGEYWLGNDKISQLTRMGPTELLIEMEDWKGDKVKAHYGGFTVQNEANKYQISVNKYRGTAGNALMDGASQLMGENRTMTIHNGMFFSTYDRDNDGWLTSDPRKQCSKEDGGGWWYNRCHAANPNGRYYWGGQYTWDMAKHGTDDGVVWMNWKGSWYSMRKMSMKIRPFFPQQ

molecular target: Fibrinogen beta chain (Homo sapiens) (UniProt P02675); assay: inhibitors of Tn7 peptide binding to fibrin DD(E), primary screen, biochemical, fluorescence polarization, human fibrin, Tn7 probe (AID 720508); settings: FP displacement of FITC-Tn7 peptide from fibrin DD(E); at 8.3 µM; active compounds read high; 0% = median of compound wells per plate;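 further: 0% = plate median of compound wells and 100% = 10 µM Aha-Tn7 peptide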

SMILES | inhibition
COc1ccc2nc(NP(=O)(c3ccccc3)c3ccccc3)sc2c1 | inactive: -5.76%
COc1cc(I)ccc1[As](=O)(O)O | inactive: -4.92%
Cc1c2c(nc3ccccc13)SC(C(Cl)Cl)C2 (stereo not given) | inactive: -2.15%
O=C(OC1CN2CCC1CC2)C12CC3CC(CC(C3)C1)C2 (stereo not given) | inactive: -4.08%
Cc1cc(=O)[nH]c(N[N+](=O)[O-])n1 | inactive: 8.42%
O=[N+]([O-])c1cc(Oc2ccc([N+](=O)[O-])cc2C(F)(F)F)cc([N+](=O)[O-])c1 | inactive: 3.35%
COc1ccc(N/C(=N/P(=O)(N2CCOCC2)N2CCOCC2)N2CCOCC2)cc1 | inactive: 3.25%
Cc1ccc(OP(=O)(Nc2ccc([N+](=O)[O-])cn2)Oc2ccc(C)cc2)cc1 | inactive: -1.77%
[N-]=[N+]=NC1CCCCC1NC(=O)c1cc([N+](=O)[O-])cc([N+](=O)[O-])c1 (stereo not given) | inactive: 9.26%
Cc1ccc2nc3c(c(C)c2c1)CC(C(Cl)Cl)S3 (stereo not given) | inactive: -1.07%
O=[As](O)(c1ccc(O)cc1)c1ccccc1O | inactive: -5.2%
C[As](=O)(O)c1cccc(C(=O)O)c1 | inactive: -2.75%
O=[N+]([O-])c1ccc(-c2cc([N+](=O)[O-])c(O)c([N+](=O)[O-])c2)cc1 | inactive: 1.94%
COc1cc(C(=O)NCC2(N3CCOCC3)CCCCC2)ccc1OCC(C)C | inactive: -0.79%
CC(C)NC(=O)NP(=O)(Oc1ccccc1)Oc1ccccc1 | inactive: 4.5%
O=C(OC1CN2CCC1CC2)c1cccc2[nH]cnc12 (stereo not given) | inactive: 3.33%
CCN(CC)C(=S)SC(NC=O)C(Cl)(Cl)Cl (stereo not given) | inactive: 5.59%
ClCCSc1nnc(-c2cccnc2)o1 | inactive: -5.87%
COC(=O)C1(C)COP(=O)(N2CCCCCC2)OC1 (stereo not given) | inactive: -0.44%
CC(C)c1ccc(OP(=O)(Nc2ccccn2)Oc2ccccc2F)cc1 (stereo not given) | inactive: 4.34%
CCn1c(=O)n(C2CCN(CC3CCCCCCC3)C[C@H]2CO)c2ccccc21 (stereo not given in full) | inactive: -9.14%
Cc1cc(SC(NC(=O)c2ccc(F)cc2)C(Cl)(Cl)Cl)ncn1 (stereo not given) | inactive: -0.11%
CCOP(=O)(Nc1ccccc1)OCC | inactive: -1.5%
Cc1ccc(NP(=O)(Oc2ccccc2F)Oc2ccccc2F)nc1 | inactive: -1.47%
O=P(Nc1nc2ccc(Cl)cc2s1)(c1ccccc1)c1ccccc1 | inactive: -1.74%
CN(C)P(=O)(N(C)C)n1c(Nc2ccccc2)nnc1-c1ccccc1 | inactive: 3.85%
CC(=O)Nc1ccc([As](=O)(O)O)cc1 | inactive: 5.22%

SMILES | inhibition
O=C(O)c1ccccc1[As](=O)(O)O | inactive: -1.98%
CCCC1OP(N)(=O)OCC1CC (stereo not given) | inactive: 2.87%
Nc1cccc2ccc([As](=O)(O)O)cc12 | inactive: -0.16%
CN(C(=O)Cc1ccccc1)C1CC[C@@]2(CCCO2)C[C@@H]1N1CCCC1 (stereo not given in full) | inactive: -5.14%
CCN(N=Nc1nonc1N)c1nonc1N | inactive: -1.32%
CN1CCCC(OC(=O)C(c2ccccc2)c2ccccc2)C1 (stereo not given) | inactive: 4.95%
Clc1ccc(Cl)c(NC2=NCC(CBr)S2)c1 (stereo not given) | inactive: 4.42%
COc1ccccc1OP(=O)(Nc1ccc(C)cn1)Oc1ccccc1OC | inactive: 2.26%
Cc1ccc(OP(=O)(Nc2nccs2)Oc2ccc(C)cc2)cc1 | inactive: -4.65%
Cc1ccc(N/C(=N/P(=O)(N2CCOCC2)N2CCOCC2)N2CCOCC2)cc1 | inactive: 1.08%
NC(=O)c1cc([N+](=O)[O-])cc([N+](=O)[O-])c1N | inactive: -1.97%
Oc1ccccc1CNc1ccccn1 | inactive: -1.66%
O=C(NC(Sc1ccncn1)C(Cl)(Cl)Cl)c1ccccc1 (stereo not given) | inactive: 2.32%
Nc1cc(N)c2nonc2c1[N+](=O)[O-] | inactive: -0.87%
CC(C)CC(=O)NC(Sc1ccc(Cl)cc1)C(Cl)(Cl)Cl (stereo not given) | inactive: 6.18%
Cc1ccc(NP(=O)(Oc2ccccc2)Oc2ccccc2)nc1 | inactive: -12.4%
O=[N+]([O-])c1cc([N+](=O)[O-])c(CCNc2ccccc2)c([N+](=O)[O-])c1 | inactive: 0.2%
CCc1nc2c(n1)c1c(non1O)c1c2no[n+]1[O-] | inactive: 1.61%
CC(=O)N1C2C3N(C(C)=O)C1C1N(C(C)=O)C(C(N1C(C)=O)N3C(C)=O)N2C(C)=O | inactive: -8.55%
O=[N+]([O-])c1cccc2n[nH]nc12 | inactive: 10.2%
COc1ccc(C2=NCC(CBr)S2)cc1 (stereo not given) | inactive: 0.19%
CC1CCN(C(=O)Oc2c(Cl)cc(Cl)c3cccnc23)CC1 | inactive: -3.26%
c1cc(-c2nn[nH]n2)ccc1-c1nn[nH]n1 | inactive: -1.39%
CC(C)c1nc(Nc2ccccc2)n(P(=O)(N(C)C)N(C)C)n1 | inactive: -8.64%
CC(C)=N/N=C(\N)N[N+](=O)[O-] | inactive: -1.86%
CN(C)C(=O)OCCc1n(C)cc[n+]1C | inactive: -0.19%
CCN(/C(=N/P(=O)(N1CCOCC1)N1CCOCC1)N1CCOCC1)c1ccc(OC)cc1 | inactive: 2.27%

SMILES | inhibition
Nc1ccc([As](=O)(O)c2ccc(N)cc2)cc1 | inactive: -0.83%
C[N+]1=C2C=CC=CC=C2SC12C([N+](=O)[O-])=CC([N+](=O)[O-])=C[C-]2[N+](=O)[O-] (stereo not given) | inactive: -3.14%
O=C(Nc1cc([As](=O)(O)O)ccc1O)c1ccccc1 | inactive: -1.61%
O=P1(N(CCCl)CCCl)OCCCS1 (stereo not given) | inactive: -4.29%
O=C(O)CNc1ccc([As](=O)(O)O)cc1 | inactive: -0.23%
COC(=O)C1(C)COP(=O)(Nc2ccccc2)OC1 (stereo not given) | inactive: 6.35%
O=[N+]([O-])c1cccc(NC2=NCC(CBr)S2)c1 (stereo not given) | inactive: -0.79%
O=[N+]([O-])c1ncn(CCn2ncnc2[N+](=O)[O-])n1 | inactive: 2.89%
CC(C)(C)C(=O)NC(Sc1ccncn1)C(Cl)(Cl)Cl (stereo not given) | inactive: -5.94%
O=P(Nc1nc2ccccc2s1)(c1ccccc1)c1ccccc1 | inactive: -2.12%
C[C@H]1OP(=O)(Oc2ccccc2)[C@H](O)[C@H](O)[C@H]1N=[N+]=[N-] (stereo not given in full) | inactive: -2.59%
CN(C)C1(CNC(=O)c2ccc(Cl)c(S(N)(=O)=O)c2)CCCCC1 | inactive: -4.5%
O=P(Nc1ccccn1)(c1ccc(Br)cc1)c1ccc(Br)cc1 | inactive: -1.43%
COc1ccc(N)c([N+](=O)[O-])c1[N+](=O)[O-] | inactive: 5.53%
Nc1ccc(CCCCOc2ccccc2)cc1 | inactive: -4.28%
O=C(OC1CN2CCC1CC2)c1cccc(Cl)c1 (stereo not given) | inactive: -2.49%
C/C(N)=N\P(=O)(OCc1ccccc1)OCc1ccccc1 | inactive: -0.48%
C(Cc1nn[nH]n1)Cc1nn[nH]n1 | inactive: 8.46%
Nc1ccc([As](=O)(O)c2ccc([N+](=O)[O-])cc2)cc1 | inactive: -9.78%
O=[As](O)(c1ccccc1)c1ccc(O)cc1 | inactive: -9.66%
O=[N+]([O-])c1ncn(CCn2cnc([N+](=O)[O-])n2)n1 | inactive: 2.41%
CC(=O)NC(SC(=S)N(C)C)C(Cl)(Cl)Cl (stereo not given) | inactive: 5.12%
c1nnnn1CCn1cnnn1 | inactive: -4.62%
O=P(Nc1nccs1)(c1ccccc1)c1ccccc1 | inactive: -4.94%
CC(C)C(=O)NC(Sc1ccccc1)C(Cl)(Cl)Cl (stereo not given) | inactive: 4.99%
CC(C)(C)C(=O)NC(Sc1ccccc1)C(Cl)(Cl)Cl (stereo not given) | inactive: -4.41%
CCc1cc(O)c([N+](=O)[O-])c(C)c1[N+](=O)[O-] | inactive: 0.74%

SMILES | inhibition
O=P1(Nc2nc3ccc(Cl)cc3s2)COc2ccccc2O1 (stereo not given) | inactive: -0.43%
CCOc1ccc(C2=NCC(CBr)S2)cc1 (stereo not given) | inactive: -6.89%
CC(=O)Nc1ccc([As](=O)(O)O)c(O)c1 | inactive: 1.57%
CC(=O)Nc1ccc(Oc2c([N+](=O)[O-])cc([N+](=O)[O-])cc2[N+](=O)[O-])cc1 | inactive: 1.28%
Cc1ccccc1CN(C)C(=O)COC(=O)C(O)(c1ccccc1)c1ccccc1 | inactive: -4.69%
C[C@H]1OP(=O)(Oc2ccccc2)C[C@@H]2O[C@@H]21 (stereo not given in full) | inactive: -1.99%
C[C@@H]1C=CCP(=O)(Oc2ccccc2)O1 (stereo not given in full) | inactive: 1.62%
CC(=O)c1ccc(N2CC2c2ccncc2)cc1 (stereo not given) | inactive: -3.38%
N#C/C(=C\c1ccc(N(CCBr)CCBr)cc1)C(N)=O | inactive: -6.13%
COC(=O)C1(C)COP(=O)(NCc2ccccc2)OC1 (stereo not given) | inactive: 4.72%
O=P1(N(CCCl)CCCl)OCCC2CCCCN21 (stereo not given) | inactive: -0.31%
c1ccc(-c2nn[nH]n2)c(-c2nn[nH]n2)c1 | inactive: 0.98%
Cc1ccc(NP(=O)(Oc2cccc(C)c2)Oc2cccc(C)c2)nc1 | inactive: 4.25%
O=C(NC1CCS(=O)(=O)C1)NP(=S)(Oc1ccccc1)Oc1ccccc1 (stereo not given) | inactive: -0.34%
CCNC(=S)/N=C(\N)N[N+](=O)[O-] | inactive: 6.53%
CC(NC(=O)COC(=O)C(O)(c1ccccc1)c1ccccc1)c1ccccc1 (stereo not given) | inactive: -6.97%
Cc1ccccc1OP(=O)(Nc1ccccn1)Oc1ccccc1C | inactive: 3.07%
O=c1c2cc([N+](=O)[O-])ccc2[nH]c2c([N+](=O)[O-])cc([N+](=O)[O-])cc12 | inactive: -0.02%
CN(C)C(=O)Oc1noc2ccccc12 | inactive: -4.05%
O=C(OC1CN2CCC1CC2)c1ccccc1 (stereo not given) | inactive: 0.23%
CCC(=O)N1C2C3N(C(=O)CC)C1C1N(C(=O)CC)C(C(N1C(=O)CC)N3C(=O)CC)N2C(=O)CC | inactive: -1.6%
COC(=O)c1cc2c(s1)N=C(c1ccccc1)N(C)P2(=O)N1CCOCC1 (stereo not given) | inactive: 0.87%
Cc1ccc(OP(=O)(Nc2ccccn2)Oc2ccc(C)cc2)cc1 | inactive: -1.26%
CC(=O)NC(SC(=S)N(CC(C)C)CC(C)C)C(Cl)(Cl)Cl (stereo not given) | inactive: -1.11%
